Literature values, collected in publication PMC7280195, “Simple ammonium salts acting on sigma-1 receptors yield potential treatments for cancer and depression” (Scientific Reports, 2020).

Biological target: sigma-1 receptors
Conditions: MDA-MB-468 cells; cited from earlier work

## CC(C)=CCN1CC[C@]2(C)c3cc(O)ccc3C[C@H]1[C@H]2C [[^3H] (+) pentazocine, (1 S,9 S,13 S)-1,13-dimethyl-10-(3-methylbut-2-en-1-yl)-10-azatricyclotrideca-2,4,6-trien-4-ol]
  Kd: 0.017 µM
  pKd ± SEM: 7.8 ± 0.6
